Earlier results on one compound are cited in article PMC11604869, “Stereoselective block of the hERG potassium channel by the Class Ia antiarrhythmic drug disopyramide” (Cellular and Molecular Life Sciences: CMLS, 2024).

Each structure is given as a SMILES string.

The target in this series is ITO. More on the design: method as in PMID 10411557. As to conditions: read-out: KD for ITO inhibition.

With `CC(C)N(CCC(C(N)=O)(c1ccccc1)c1ccccn1)C(C)C` (racemic) [racemic disopyramide, 4-(diisopropylamino)−2-phenyl-2-(pyridin-2-yl) butanamide], the dissociation constant (Kd) was 259 µM.

By Kd is commonly meant the concentration at which binding is half-saturated.
